Biological target: T1, human CD55 (human, UniProt P08174 35-353, limits assumed)
T1 construct: also called Decay-Accelerating Factor; DAF
T1 sequence (looked up): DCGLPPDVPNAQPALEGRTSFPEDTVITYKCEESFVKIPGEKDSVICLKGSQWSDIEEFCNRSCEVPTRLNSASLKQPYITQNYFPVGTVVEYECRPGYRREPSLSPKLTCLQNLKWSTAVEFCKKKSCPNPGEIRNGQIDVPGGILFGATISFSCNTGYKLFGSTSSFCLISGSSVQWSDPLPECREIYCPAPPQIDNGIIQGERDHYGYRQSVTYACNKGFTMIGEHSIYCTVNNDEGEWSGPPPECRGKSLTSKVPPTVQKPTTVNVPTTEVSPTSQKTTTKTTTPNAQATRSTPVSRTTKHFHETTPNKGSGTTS
Test: library screen, species specificity summary

B1: P5-10B (antibody, V domains shown)
VH: EVQLVESGGGLVQPGGSLRLSCAASGFTFTDYDIHWVRQAPGKGLEWVAGWINPYNGYTDYADSVKGRFTISADTSKNTAYLQMNSLRAEDTAVYYCARPLSWALDYWGQGTLVTVSS
VL: not shown
Does B1 bind?
Result: binds

Source: US20220088193A1 (AGONOX, published 2022)
